Measured values reported in PubChem BioAssay AID1496 (Sanford-Burnham Center for Chemical Genomics, 2009).
The list shows a part of the results, in another mix than the full data. The source made the active and inactive calls.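 The calls were made as follows: active = inhibition over about 50% at 20 µM in the single-dose screen (limit read from the data); inactive = the rest.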

The chains behind the UniProt entries cited, without tags or fusion partners.
UniProt Q01196, whole entry, looked up: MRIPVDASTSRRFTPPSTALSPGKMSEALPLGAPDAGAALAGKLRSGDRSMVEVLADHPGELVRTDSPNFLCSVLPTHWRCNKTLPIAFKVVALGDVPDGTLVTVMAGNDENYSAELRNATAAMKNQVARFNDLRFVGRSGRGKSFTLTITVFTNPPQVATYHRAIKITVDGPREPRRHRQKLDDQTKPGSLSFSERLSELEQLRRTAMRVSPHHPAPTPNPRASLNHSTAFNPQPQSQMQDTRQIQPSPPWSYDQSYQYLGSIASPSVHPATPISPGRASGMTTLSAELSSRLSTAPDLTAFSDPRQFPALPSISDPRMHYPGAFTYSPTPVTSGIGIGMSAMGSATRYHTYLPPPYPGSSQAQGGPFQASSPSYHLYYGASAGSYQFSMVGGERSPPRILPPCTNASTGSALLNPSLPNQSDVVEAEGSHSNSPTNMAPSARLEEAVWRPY
UniProt Q13951, whole entry, looked up: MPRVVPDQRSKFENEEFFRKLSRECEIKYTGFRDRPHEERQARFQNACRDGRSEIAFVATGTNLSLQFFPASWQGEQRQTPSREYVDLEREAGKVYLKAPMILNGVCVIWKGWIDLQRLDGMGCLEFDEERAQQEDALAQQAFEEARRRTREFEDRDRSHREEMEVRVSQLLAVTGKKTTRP

These compounds were tested against Runt-related transcription factor 1 (Homo sapiens) + Core-binding factor subunit beta (Homo sapiens) (UniProt Q01196+Q13951) (assay: inhibitors of RUNX1 Runt–CBFb binding, primary screen, biochemical, FRET, Cerulean-Runt, Venus-CBFb, uHTS (AID 1496;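 also: 0% = DMSO wells and 100% = excess unlabeled CBFb competitor control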)). Details: Cerulean-Runt/Venus-CBFb FRET ratio 530/480, 1 h; at 20 µM; active compounds read high.
Summary of the method: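 Measured by: fluorescence energy transfer, 422 nm excitation, 530/480 nm emission; test system: Cerulean-tagged RUNX1 Runt domain (FRET donor) fusion protein; buffer or medium: Tris pH 7.5 buffer with BSA; compound: one dose, 20 µM compound, 1% DMSO; times: two 1 h room-temperature incubations shielded from light; benchmarks: unlabeled CBFb 5 µM, positive control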

| SMILES | inhibition |
| --- | --- |
| O=C(O)COc1ccc([As](=O)(O)O)cc1[N+](=O)[O-] | inactive: 2.1% |
| Nc1ccccc1[As](=O)(O)c1ccccc1 | inactive: -0.9% |
| CCOP1(=S)c2c(C)nn(CCC#N)c2N=C(c2ccccc2F)N1C (stereo not given) | inactive: -0.1% |
| O=P(Nc1nccs1)(c1ccccc1)c1nc2ccccc2s1 (stereo not given) | inactive: 20% |
| CS(=O)(=O)c1cc([N+](=O)[O-])c2no[n+]([O-])c2c1 | inactive: -135% |
| CN(C(=O)Cc1ccccc1)[C@@H]1CC[C@]2(CCCO2)C[C@H]1N1CCCC1 | inactive: 3.7% |
| CCOP1(=S)c2c(C)nn(CCC#N)c2N=C(c2ccc(F)cc2)N1C (stereo not given) | inactive: -1.1% |
| O=[N+]([O-])c1ccc2c(c1)nnn2O | inactive: 0.8% |
| NC(=O)Nc1ccc([As](=O)(O)O)cc1 | inactive: 0.5% |
| Cc1cccc(OCC(=O)OC2CN3CCC2CC3)c1 (stereo not given) | inactive: -0.8% |
| O=[As](O)(c1cccc(O)c1)c1cccc(O)c1 | inactive: 1.1% |
| O=C(OC1CN2CCC1CC2)c1ccc(Cl)cc1 (stereo not given) | inactive: -0.3% |
| O=[As](O)(O)c1cccnc1 | inactive: -0.2% |
| COc1cc(C(=O)NCC2(N3CCOCC3)CCCCC2)cc(Cl)c1OC(C)C | inactive: -2.9% |
| COc1cc(C2NCCC3(OCCO3)C2(C)C)cc(OC)c1OC (stereo not given) | inactive: -0.9% |
| CCOP(=O)(Nc1cccc2ccccc12)OCC | inactive: -2.7% |
| Nc1cccc2c([As](=O)(O)O)cccc12 | inactive: -95.6% |
| Cc1ccc(NCCc2c([N+](=O)[O-])cc([N+](=O)[O-])cc2[N+](=O)[O-])cc1 | inactive: 8.1% |
| CCCOP(=S)(Nc1nc(N)cc(=O)[nH]1)OCCC | inactive: 2.4% |
| Clc1n[nH]nc1-c1nn[nH][15n]1 | inactive: 4.1% |

| SMILES | inhibition |
| --- | --- |
| CC(C)(C)C(=O)NC(Sc1ncccn1)C(Cl)(Cl)Cl (stereo not given) | inactive: 6.7% |
| O=P1(Nc2ccccn2)COc2ccccc2OC1 | inactive: -0.3% |
| CCOP(=O)(Nc1ccc(C)cn1)OCC | inactive: 1% |
| CN(C(=O)Cc1ccc(Cl)c(Cl)c1)[C@@H]1CCCC[C@H]1N1CCCC1 | inactive: 0.6% |
| CC(C)/C=N\N=C(\N)N[N+](=O)[O-] | inactive: -0.5% |
| O=[As](O)(c1ccccc1Br)c1ccccc1Br | inactive: -0.1% |
| CN(C)C1(CNC(=O)c2ccc(S(C)(=O)=O)cc2)CCCCC1 | inactive: 1.4% |
| O=C(/C=C/c1ccccc1)OC1CN2CCC1CC2 (stereo not given) | inactive: 1.2% |
| Cc1nn(-c2ccccc2)c2c1P(=O)(N1CCOCC1)N(C)C(c1ccccc1)=N2 (stereo not given) | inactive: 0.5% |
| CC1CCC(C(C)C)C(OP(=O)(Nc2ccccn2)c2ccccc2)C1 (stereo not given) | inactive: -3.8% |
| Nc1cccc([As](=O)(O)c2ccccc2)c1 | inactive: -1.2% |
| O=[As](O)(c1cccs1)c1cccs1 | inactive: 1.5% |
| Cc1ccc(OCC(=O)OC2CN3CCC2CC3)cc1 (stereo not given) | inactive: 0.1% |
| O=P1(Nc2ccc(Br)cn2)COc2ccccc2OC1 | inactive: 0.4% |
| O=P1(Nc2ncccn2)COc2ccccc2OC1 | inactive: 0.4% |
| Cc1cc(SC(NC(=O)c2ccccc2)C(Cl)(Cl)Cl)nc(C(C)C)n1 (stereo not given) | inactive: 43.1% |
| CCOC(=O)Nc1ccc([As](=O)(O)O)c(O)c1 | inactive: 6.4% |
| Cc1cc(SC(NC=O)C(Cl)(Cl)Cl)ncn1 (stereo not given) | inactive: 44.4% |
| O=P(Nc1ccccn1)(c1cccc2ccccc12)c1cccc2ccccc12 | inactive: 1.3% |
| O=[N+]([O-])c1ccc(Nc2ccc(Oc3ccc([N+](=O)[O-])cc3[N+](=O)[O-])cc2)c([N+](=O)[O-])c1 | inactive: 1.1% |

| SMILES | inhibition |
| --- | --- |
| CCOC(=O)Nc1cccc([As](=O)(O)O)c1 | inactive: 1.3% |
| O=C(COc1ccccc1)OC1CN2CCC1CC2 (stereo not given) | inactive: -0.4% |
| COP1(=S)c2c(C)nn(CCC#N)c2N=C(c2ccc(F)cc2)N1C (stereo not given) | inactive: 0.5% |
| CCC(C)N(CC(C)C)C(=S)SC(NC(C)=O)C(Cl)(Cl)Cl (stereo not given) | inactive: 12.4% |
| CCOC(=O)c1ccc(NC(=O)C(C)(CCl)SC)cc1 (stereo not given) | inactive: 1.3% |
| COc1ccc2nc(NP(=O)(c3ccccc3)c3ccccc3)sc2c1 | inactive: 0% |
| COc1cc(I)ccc1[As](=O)(O)O | inactive: -0.4% |
| Cc1c2c(nc3ccccc13)SC(C(Cl)Cl)C2 (stereo not given) | inactive: 0.9% |
| O=C(OC1CN2CCC1CC2)C12CC3CC(CC(C3)C1)C2 (stereo not given) | inactive: -1.8% |
| Cc1cc(=O)[nH]c(N[N+](=O)[O-])n1 | inactive: 1.1% |
| COc1ccc(N/C(=N/P(=O)(N2CCOCC2)N2CCOCC2)N2CCOCC2)cc1 | inactive: -0.9% |
| Cc1ccc(OP(=O)(Nc2ccc([N+](=O)[O-])cn2)Oc2ccc(C)cc2)cc1 | inactive: -0.4% |
| Cc1ccc2nc3c(c(C)c2c1)CC(C(Cl)Cl)S3 (stereo not given) | inactive: -0.2% |
| O=[As](O)(c1ccc(O)cc1)c1ccccc1O | inactive: -2.9% |
| C[As](=O)(O)c1cccc(C(=O)O)c1 | inactive: 0.4% |
| CC(C)NC(=O)NP(=O)(Oc1ccccc1)Oc1ccccc1 | inactive: 0.6% |
| CCN(CC)C(=S)SC(NC=O)C(Cl)(Cl)Cl (stereo not given) | inactive: 3% |
| O=[N+]([O-])c1cc([N+](=O)[O-])c(-c2ccn[nH]2)s1 | inactive: 20.3% |
| ClCCSc1nnc(-c2cccnc2)o1 | inactive: 0.3% |
| CC(C)c1ccc(OP(=O)(Nc2ccccn2)Oc2ccccc2F)cc1 (stereo not given) | inactive: -1.1% |
